Measurements reported in PubChem BioAssay AID488 (PCMD, 2006).
This is a selection; strong and weak results do not stand in their true shares. Calls of active or inactive are those of the source. Rule as the data show it: active = inhibition above about 22% (passing the limit was not always enough); inconclusive = no clear call, values can overlap the other calls.

target: Cathepsin B (Homo sapiens) (UniProt P07858); experiment: human cathepsin B blockade, pooled library – biochemical, compound mixtures, AMC fluorescence, primary screen (AID 488); conditions: Purified cathepsin B, AMC dipeptide fluorescence, hits give high values,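 ten-compound pools at 5 µM per compound and 50 µM total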;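 also: 0% = enzyme without compound and 100% = no enzyme blank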

**Q.** For `O=C(OC1CN2CCC1CC2)C1c2ccccc2Oc2ccccc21` (stereo unspecified), which inhibition is on record?
**A.** Its inhibition is inactive: 0.71%.

**Q.** `N#CC1(Nc2ccccc2)CCN(CCc2ccccc2)CC1` was tested. Which inhibition did it give?
**A.** Its inhibition is inactive: 3.67%.

**Q.** `N/C(=N\O)c1c(N)no[n+]1[O-]` was tested. Which inhibition did it give?
**A.** Its inhibition is inactive: 6.25%.

**Q.** How did the inhibition turn out when `CCOc1ncccc1C(=O)NCC1(N2CCOCC2)CCCCC1` was run?
**A.** Its inhibition is inactive: 2.46%.

**Q.** How did the inhibition turn out when `CCC(CO)(C(=O)OC1CN2CCC1CC2)c1ccccc1` (stereo unspecified) was run?
**A.** The inhibition was inactive: 6.11%.

**Q.** `Fc1ccccc1NC1CCN(Cc2ccccc2)CC1` was tested. Which inhibition did it give?
**A.** Its inhibition is inactive: 6.48%.
